This passage reports Ratio IC50 results from ChEMBL document CHEMBL4011633, “Donepezil-Based Central Acetylcholinesterase Inhibitors by Means of a "Bio-Oxidizable" Prodrug Strategy: Design, Synthesis, and in Vitro Biological Evaluation” (J Med Chem, 2017).

The test is described as follows: Selectivity index, ratio of IC50 for equine serum BChE to IC50 for AChE in human erythrocytes. It is filed as cell-based.

As for `COc1cc2c(cc1OC)C(=O)C(Cc1cc[n+](Cc3ccccc3C)cc1C(C)=O)C2` (stereo unspecified), the Ratio IC50 was 674.
